From PubChem BioAssay (NCI)
Some results for these compounds are left out of this collection, so the calls shown say nothing about other tests.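 A five-concentration, 48-hour dose response in 96-well plates underlies each endpoint, interpolated linearly between surrounding concentrations. GI50 is the concentration that inhibits growth by half. At the TGI there is no net growth.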

Experiments:
Assay in all cases: inhibition of tumour cell growth, NCI panel, 48 h
MCF7 breast = tested on: MCF7 breast
RPMI-8226 leukemia = tested on: RPMI-8226 leukemia
HCT-15 colon = tested on: HCT-15 colon
NCI-H23 lung = tested on: NCI-H23 lung
A549 NSCLC = tested on: A549 NSCLC
T-47D breast = tested on: T-47D breast
PC-3 prostate = tested on: PC-3 prostate
HOP-92 NSCLC = tested on: HOP-92 NSCLC
K-562 leukemia = tested on: K-562 leukemia
SNB-19 CNS = tested on: SNB-19 CNS
UACC-257 melanoma = tested on: UACC-257 melanoma
BT-549 breast = tested on: BT-549 breast
SF-295 CNS = tested on: SF-295 CNS
MDA-MB-435 = tested on: MDA-MB-435
U251 CNS = tested on: U251 CNS
LOX IMVI melanoma = tested on: LOX IMVI melanoma
EKVX NSCLC = tested on: EKVX NSCLC
NCI-H460 lung = tested on: NCI-H460 lung
HL-60(TB) leukemia = tested on: HL-60(TB) leukemia
SK-MEL-2 melanoma = tested on: SK-MEL-2 melanoma
HOP-62 NSCLC = tested on: HOP-62 NSCLC
SK-MEL-28 melanoma = tested on: SK-MEL-28 melanoma
SR leukemia = tested on: SR leukemia
RXF 393 renal = tested on: RXF 393 renal
SN12C renal = tested on: SN12C renal
CCRF-CEM leukemia = tested on: CCRF-CEM leukemia
NCI-H226 lung = tested on: NCI-H226 lung
SK-OV-3 ovarian = tested on: SK-OV-3 ovarian
KM12 colon = tested on: KM12 colon
OVCAR-3 ovarian = tested on: OVCAR-3 ovarian
UO-31 renal = tested on: UO-31 renal
M14 melanoma = tested on: M14 melanoma
ACHN renal = tested on: ACHN renal
COLO 205 colon = tested on: COLO 205 colon
MOLT-4 leukemia = tested on: MOLT-4 leukemia
SK-MEL-5 melanoma = tested on: SK-MEL-5 melanoma
HS 578T breast = tested on: HS 578T breast
MDA-N = tested on: MDA-N
NCI/ADR-RES ovarian = tested on: NCI/ADR-RES ovarian
HCT-116 colon = tested on: HCT-116 colon
MDA-MB-231 breast = tested on: MDA-MB-231 breast
TK-10 renal = tested on: TK-10 renal
SW-620 colon = tested on: SW-620 colon
SF-268 CNS = tested on: SF-268 CNS
OVCAR-8 ovarian = tested on: OVCAR-8 ovarian
A498 renal = tested on: A498 renal
SNB-75 CNS = tested on: SNB-75 CNS
MALME-3M melanoma = tested on: MALME-3M melanoma
HCC-2998 colon = tested on: HCC-2998 colon
786-0 renal = tested on: 786-0 renal
SF-539 CNS = tested on: SF-539 CNS
IGROV1 ovarian = tested on: IGROV1 ovarian
OVCAR-5 ovarian = tested on: OVCAR-5 ovarian
UACC-62 melanoma = tested on: UACC-62 melanoma
DU-145 prostate = tested on: DU-145 prostate

## CC#CC(O)(C(=O)OC1C2CCN(CC2)C1C)C1CCCC1 (stereo not given)
MCF7 breast
  GI50: > 100 µM
  TGI: > 100 µM
RPMI-8226 leukemia
  GI50: > 100 µM
  TGI: > 100 µM
HCT-15 colon
  GI50: > 100 µM
  TGI: > 100 µM
NCI-H23 lung
  GI50: > 100 µM
  TGI: > 100 µM
A549 NSCLC
  GI50: > 100 µM
  TGI: > 100 µM
T-47D breast
  GI50: > 100 µM
  TGI: > 100 µM
PC-3 prostate
  GI50: > 100 µM
  TGI: > 100 µM
HOP-92 NSCLC
  GI50: > 100 µM
  TGI: > 100 µM
K-562 leukemia
  GI50: > 100 µM
  TGI: > 100 µM
SNB-19 CNS
  GI50: > 100 µM
  TGI: > 100 µM
UACC-257 melanoma
  GI50: > 100 µM
  TGI: > 100 µM
BT-549 breast
  GI50: > 100 µM
  TGI: > 100 µM
SF-295 CNS
  GI50: > 100 µM
  TGI: > 100 µM
MDA-MB-435
  GI50: > 100 µM
  TGI: > 100 µM
U251 CNS
  GI50: > 100 µM
  TGI: > 100 µM
LOX IMVI melanoma
  GI50: > 100 µM
  TGI: > 100 µM
EKVX NSCLC
  GI50: > 100 µM
  TGI: > 100 µM
NCI-H460 lung
  GI50: > 100 µM
  TGI: > 100 µM
HL-60(TB) leukemia
  GI50: > 100 µM
  TGI: > 100 µM
SK-MEL-2 melanoma
  GI50: > 100 µM
  TGI: > 100 µM
HOP-62 NSCLC
  GI50: > 100 µM
  TGI: > 100 µM
SK-MEL-28 melanoma
  GI50: > 100 µM
  TGI: > 100 µM
SR leukemia
  GI50: > 100 µM
  TGI: > 100 µM
RXF 393 renal
  GI50: > 100 µM
  TGI: > 100 µM
SN12C renal
  GI50: > 100 µM
  TGI: > 100 µM
CCRF-CEM leukemia
  GI50: > 100 µM
  TGI: > 100 µM
NCI-H226 lung
  GI50: > 100 µM
  TGI: > 100 µM
SK-OV-3 ovarian
  GI50: > 100 µM
  TGI: > 100 µM
KM12 colon
  GI50: > 100 µM
  TGI: > 100 µM
OVCAR-3 ovarian
  GI50: > 100 µM
  TGI: > 100 µM
UO-31 renal
  GI50: > 100 µM
  TGI: > 100 µM
M14 melanoma
  GI50: > 100 µM
  TGI: > 100 µM
ACHN renal
  GI50: > 100 µM
  TGI: > 100 µM
COLO 205 colon
  GI50: > 100 µM
  TGI: > 100 µM
MOLT-4 leukemia
  GI50: > 100 µM
  TGI: > 100 µM
SK-MEL-5 melanoma
  GI50: > 100 µM
  TGI: > 100 µM
HS 578T breast
  GI50: > 100 µM
  TGI: > 100 µM
MDA-N
  GI50: > 100 µM
  TGI: > 100 µM
NCI/ADR-RES ovarian
  GI50: > 100 µM
  TGI: > 100 µM
HCT-116 colon
  GI50: > 100 µM
  TGI: > 100 µM
MDA-MB-231 breast
  GI50: > 100 µM
  TGI: > 100 µM
TK-10 renal
  GI50: > 100 µM
  TGI: > 100 µM
SW-620 colon
  GI50: > 100 µM
  TGI: > 100 µM
SF-268 CNS
  GI50: > 100 µM
  TGI: > 100 µM
OVCAR-8 ovarian
  GI50: > 100 µM
  TGI: > 100 µM
A498 renal
  GI50: > 100 µM
  TGI: > 100 µM
SNB-75 CNS
  GI50: > 100 µM
  TGI: > 100 µM
MALME-3M melanoma
  GI50: > 100 µM
  TGI: > 100 µM
HCC-2998 colon
  GI50: > 100 µM
  TGI: > 100 µM
786-0 renal
  GI50: > 100 µM
  TGI: > 100 µM
SF-539 CNS
  GI50: > 100 µM
  TGI: > 100 µM
IGROV1 ovarian
  GI50: > 100 µM
  TGI: > 100 µM
OVCAR-5 ovarian
  GI50: > 100 µM
  TGI: > 100 µM
UACC-62 melanoma
  GI50: > 100 µM
  TGI: > 100 µM
DU-145 prostate
  GI50: > 100 µM
  TGI: > 100 µM
